Reference: ChEMBL document CHEMBL1129978, “Effect of structural modification of enol-carboxamide-type nonsteroidal antiinflammatory drugs on COX-2/COX-1 selectivity” (J Med Chem, 1997)

The chains behind the UniProt entries cited, without tags or fusion partners.
UniProt P23219, whole entry: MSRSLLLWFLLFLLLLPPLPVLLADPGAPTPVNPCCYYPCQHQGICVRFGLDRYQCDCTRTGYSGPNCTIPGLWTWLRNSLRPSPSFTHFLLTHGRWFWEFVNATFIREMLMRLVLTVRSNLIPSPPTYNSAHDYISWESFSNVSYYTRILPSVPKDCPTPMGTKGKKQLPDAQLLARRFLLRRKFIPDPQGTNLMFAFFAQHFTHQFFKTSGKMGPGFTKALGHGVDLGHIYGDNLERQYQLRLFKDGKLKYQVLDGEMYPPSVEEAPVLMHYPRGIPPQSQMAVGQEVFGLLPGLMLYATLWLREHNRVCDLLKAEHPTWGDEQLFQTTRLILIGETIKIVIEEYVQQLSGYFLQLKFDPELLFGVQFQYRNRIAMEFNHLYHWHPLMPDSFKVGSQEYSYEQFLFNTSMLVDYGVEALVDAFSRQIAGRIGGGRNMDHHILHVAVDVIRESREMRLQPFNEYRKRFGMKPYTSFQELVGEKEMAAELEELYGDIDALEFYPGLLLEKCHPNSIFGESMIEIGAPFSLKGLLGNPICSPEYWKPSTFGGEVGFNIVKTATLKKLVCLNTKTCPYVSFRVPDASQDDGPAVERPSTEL

Biological target: Prostaglandin G/H synthase 1 (Homo sapiens, UniProt P23219)
Assay: Concentration of drug that causes a 50% decrease in the maximal inhibition of Prostaglandin G/H synthase 1 activity as measured by PGE-2 production (''++'' indicates 80-90% inhibition)

Work on `CN1C(C(=O)Nc2ccccn2)=C(O)c2ccccc2S1(=O)=O` [PIROXICAM] yielded an IC50 of 1300 nM.
